Experimental data from patent publication US20210198647A1, “Enhancers of Neurolysin Activity” (Texas Tech University System, priority 2018, published 2021).
Several values for one entry are separate records, joined by “and”; a condition that tells them apart may be missing. Equal values may be shown once.

Sequences of proteins named here, by UniProt entry; tags and fusion partners are left off. Residues count along the entry.
UniProt P42676, 38-704: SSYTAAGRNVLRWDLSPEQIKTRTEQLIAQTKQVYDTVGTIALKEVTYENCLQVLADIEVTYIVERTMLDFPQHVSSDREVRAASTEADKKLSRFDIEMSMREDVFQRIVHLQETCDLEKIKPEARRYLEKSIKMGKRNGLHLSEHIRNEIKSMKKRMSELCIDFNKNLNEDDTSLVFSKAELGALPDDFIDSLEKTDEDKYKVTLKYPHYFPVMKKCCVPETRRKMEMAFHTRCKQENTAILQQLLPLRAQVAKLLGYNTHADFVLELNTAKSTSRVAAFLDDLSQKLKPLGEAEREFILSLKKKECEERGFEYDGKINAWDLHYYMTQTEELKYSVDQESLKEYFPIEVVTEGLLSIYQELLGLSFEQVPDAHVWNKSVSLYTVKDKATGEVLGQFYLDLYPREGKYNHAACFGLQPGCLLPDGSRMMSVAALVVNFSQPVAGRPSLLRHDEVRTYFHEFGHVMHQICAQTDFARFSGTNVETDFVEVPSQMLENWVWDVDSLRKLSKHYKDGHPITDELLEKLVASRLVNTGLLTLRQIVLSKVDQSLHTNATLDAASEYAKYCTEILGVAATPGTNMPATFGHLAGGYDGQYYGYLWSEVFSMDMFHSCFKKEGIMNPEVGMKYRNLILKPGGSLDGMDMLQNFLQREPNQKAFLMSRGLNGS

Each compound was assayed against T1, Neurolysin (Nln) (Rattus norvegicus, UniProt P42676) (assay: Nln activation in isolated enzyme assay (A50, Amax)). Conditions: A50 (concentration required to activate Nln by 50%).
T1 construct: polyhistidine (N); made in house; host or cells: Escherichia coli (pBAD/His vector), if the rat enzyme of b61 was used
Format: biochemical
Compound `N[C@@H](Cc1c[nH]cn1)C(=O)NCCCc1ccccc1` [Compound 7a, (S)-2-amino-3-(1H-imidazol-4-yl)-N-(3-phenylpropyl)propanamide] has an EC50 of 20.6 µM.
`N[C@H](Cc1c[nH]cn1)C(=O)NCCCc1ccccc1` [Compound 7b, (R)-2-amino-3-(1H-imidazol-4-yl)-N-(3-phenylpropyl)propanamide] showed an EC50 of 21 µM.

Same assay, conditions: read-out: A50 (concentration required to activate Nln by 50%)
`N[C@@H](Cc1c[nH]cn1)C(=O)NCCc1ccc(C(F)(F)F)cc1` [Compound 4k] was tested, and the EC50 was 16 µM and 15.7 µM.
`N[C@H](Cc1c[nH]cn1)C(=O)NCCc1ccc(C(F)(F)F)cc1` [Compound 4l, (R)-2-amino-3-(1H-imidazol-4-yl)-N-(4-(trifluoromethyl)phenethyl)propanamide] was tested, and the EC50 was 30 µM and 24 µM.
`COc1cccc(CNC(=O)[C@@H](N)Cc2c[nH]cn2)c1` [Compound 5f] showed an EC50 of 66.8 µM.
In the case of `N[C@@H](Cc1c[nH]cn1)C(=O)NCc1ccc(C(F)(F)F)cc1` [Compound 5h, (S)-2-amino-3-(1H-imidazol-4-yl)-N-(4-(trifluoromethyl)benzyl)propanamide], the EC50 is reported as 26 µM and 25.8 µM.
In the case of `N[C@H](Cc1c[nH]cn1)C(=O)NCc1ccc(C(F)(F)F)cc1` [Compound 5i, (R)-2-amino-3-(1H-imidazol-4-yl)-N-(4-(trifluoromethyl)benzyl)propanamide], the EC50 is reported as 29.3 µM.
In the case of `N[C@@H](Cc1c[nH]cn1)C(=O)NCc1ccccc1C(F)(F)F` [Compound 5j, (S)-2-amino-3-(1H-imidazol-4-yl)-N-(2-(trifluoromethyl)benzyl)propanamide], the EC50 is reported as 49 µM and 48.6 µM.
For `N[C@H](Cc1c[nH]cn1)C(=O)NCc1ccccc1C(F)(F)F` [Compound 5k, (R)-2-amino-3-(1H-imidazol-4-yl)-N-(2-(trifluoromethyl)benzyl)propanamide], the EC50 was 27.1 µM.
`N[C@@H](Cc1c[nH]cn1)C(=O)NCc1ccc(F)cc1` [Compound 5n, (S)-2-amino-N-(4-fluorobenzyl)-3-(1H-imidazol-4-yl)propanamide] was tested, and the EC50 was 15 µM and 14.9 µM.
For `N[C@H](Cc1c[nH]cn1)C(=O)NCc1ccc(F)cc1` [Compound 5o, (R)-2-amino-N-(4-fluorobenzyl)-3-(1H-imidazol-4-yl)propanamide], the EC50 was 30 µM and 29.8 µM.
In the case of `N[C@@H](Cc1c[nH]cn1)C(=O)NCc1ccc(OC(F)(F)F)cc1` [Compound 5p], the EC50 is reported as 27.4 µM.
In the case of `N[C@H](Cc1c[nH]cn1)C(=O)NCc1ccc(OC(F)(F)F)cc1` [Compound 5q, (R)-2-amino-3-(1H-imidazol-4-yl)-N-(4-(trifluoromethoxy)benzyl)propanamide], the EC50 is reported as 26.7 µM.
In the case of `N[C@@H](Cc1c[nH]cn1)C(=O)NCc1ccc(SC(F)(F)F)cc1` [Compound 5r], the EC50 is reported as 28.2 µM.
For `N[C@H](Cc1c[nH]cn1)C(=O)NCc1ccc(SC(F)(F)F)cc1` [Compound 5s], the EC50 was 16 µM and 16.1 µM.
With `N[C@H](C(=O)N1CCC[C@H]1C(=O)O)c1c[nH]cn1` [His-Pro] the EC50 was 5.6 µM.
